In this experiment the target is human Nav1.6 (Homo sapiens, UniProt Q9UQD0). The class given is cell-based.

The chains behind the UniProt entries cited, without tags or fusion partners.
UniProt Q9UQD0, whole entry: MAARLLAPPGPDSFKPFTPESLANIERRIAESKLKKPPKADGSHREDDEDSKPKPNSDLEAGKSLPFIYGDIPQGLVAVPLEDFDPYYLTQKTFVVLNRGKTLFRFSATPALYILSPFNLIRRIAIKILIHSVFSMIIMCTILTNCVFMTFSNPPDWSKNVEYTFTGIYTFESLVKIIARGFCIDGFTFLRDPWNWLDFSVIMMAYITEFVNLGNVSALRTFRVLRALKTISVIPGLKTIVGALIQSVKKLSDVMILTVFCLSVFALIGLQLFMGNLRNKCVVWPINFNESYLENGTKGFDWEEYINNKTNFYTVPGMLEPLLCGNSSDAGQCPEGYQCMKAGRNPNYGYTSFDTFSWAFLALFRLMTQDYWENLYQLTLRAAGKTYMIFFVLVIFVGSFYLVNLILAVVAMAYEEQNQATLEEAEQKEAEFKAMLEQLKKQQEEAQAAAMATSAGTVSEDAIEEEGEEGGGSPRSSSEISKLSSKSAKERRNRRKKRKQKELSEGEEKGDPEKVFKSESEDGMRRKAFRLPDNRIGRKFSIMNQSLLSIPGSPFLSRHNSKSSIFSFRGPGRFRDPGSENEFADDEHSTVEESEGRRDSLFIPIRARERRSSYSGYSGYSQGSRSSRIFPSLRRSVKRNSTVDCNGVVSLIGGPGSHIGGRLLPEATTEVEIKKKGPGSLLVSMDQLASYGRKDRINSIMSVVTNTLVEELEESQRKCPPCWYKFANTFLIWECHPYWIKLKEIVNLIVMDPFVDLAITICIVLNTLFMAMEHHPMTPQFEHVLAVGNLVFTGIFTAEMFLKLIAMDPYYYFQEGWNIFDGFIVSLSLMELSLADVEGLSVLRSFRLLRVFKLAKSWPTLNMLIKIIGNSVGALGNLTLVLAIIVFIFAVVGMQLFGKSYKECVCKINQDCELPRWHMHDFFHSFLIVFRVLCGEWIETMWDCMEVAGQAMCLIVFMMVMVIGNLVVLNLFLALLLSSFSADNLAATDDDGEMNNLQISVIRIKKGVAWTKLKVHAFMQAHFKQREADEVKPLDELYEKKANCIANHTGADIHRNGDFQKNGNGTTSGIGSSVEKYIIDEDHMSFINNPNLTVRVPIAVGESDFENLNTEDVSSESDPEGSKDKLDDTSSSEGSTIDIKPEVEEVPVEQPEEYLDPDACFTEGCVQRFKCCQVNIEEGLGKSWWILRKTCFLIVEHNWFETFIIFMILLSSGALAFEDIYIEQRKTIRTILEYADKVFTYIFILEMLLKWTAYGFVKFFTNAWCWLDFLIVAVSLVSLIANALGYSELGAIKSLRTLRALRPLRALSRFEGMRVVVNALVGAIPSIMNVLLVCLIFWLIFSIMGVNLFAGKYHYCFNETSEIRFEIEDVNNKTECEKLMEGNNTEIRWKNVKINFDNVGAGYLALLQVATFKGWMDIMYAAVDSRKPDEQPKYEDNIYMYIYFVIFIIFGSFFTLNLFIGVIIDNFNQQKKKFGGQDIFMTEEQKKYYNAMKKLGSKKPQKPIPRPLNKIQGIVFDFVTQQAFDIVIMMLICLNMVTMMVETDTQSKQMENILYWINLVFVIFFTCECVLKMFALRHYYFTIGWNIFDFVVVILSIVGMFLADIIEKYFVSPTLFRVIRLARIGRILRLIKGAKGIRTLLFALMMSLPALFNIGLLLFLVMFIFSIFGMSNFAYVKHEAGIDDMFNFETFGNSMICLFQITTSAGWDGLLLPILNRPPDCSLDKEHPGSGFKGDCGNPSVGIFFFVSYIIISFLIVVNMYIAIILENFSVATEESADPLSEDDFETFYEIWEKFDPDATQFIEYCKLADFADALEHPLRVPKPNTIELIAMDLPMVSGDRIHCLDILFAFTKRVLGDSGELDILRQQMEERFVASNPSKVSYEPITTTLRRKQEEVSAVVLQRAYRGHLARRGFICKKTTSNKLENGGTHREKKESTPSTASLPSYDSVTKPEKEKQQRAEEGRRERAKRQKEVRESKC

From patent US20170334959A1 (priority 2015, published 2017) come the findings set out here.

For the substance “GPQCQKWMQTCDRERKCCEGFVCTLWCRKKLW-COOH [NV1D3034]”, the “selectivity for Nav1.7 compared to recombinant Protoxin-II” value was “improved selectivity”.
